In assay [1] the target is T1, IRAK4 (Homo sapiens, UniProt Q9NWZ3). The experiment in a line: 2-hour 1 mM ATP IRAK4 Biochemical assay (as above, but with 100 pM IRAK4 and 1 mM ATP). As to conditions: IRAK4 MSD BIOCHEMICAL (1 mM ATP) IC50 (μM), 100 pM IRAK4, 2 hours.
Assay [2] deals with T1, IRAK4. The assay can be described thus: 2-hour 10 μM ATP Biochemical Assay (MesoScale Detection format; IRAK4 phosphorylation of biotin labeled IRAK1 activation loop peptide). To be noted: IRAK4 MSD BIOCHEMICAL (10 μM ATP) IC50 (μM), 1 nM IRAK4, 2 hours.

Sequences of proteins named here, by UniProt entry; tags and fusion partners are left off.
UniProt Q9NWZ3, whole entry: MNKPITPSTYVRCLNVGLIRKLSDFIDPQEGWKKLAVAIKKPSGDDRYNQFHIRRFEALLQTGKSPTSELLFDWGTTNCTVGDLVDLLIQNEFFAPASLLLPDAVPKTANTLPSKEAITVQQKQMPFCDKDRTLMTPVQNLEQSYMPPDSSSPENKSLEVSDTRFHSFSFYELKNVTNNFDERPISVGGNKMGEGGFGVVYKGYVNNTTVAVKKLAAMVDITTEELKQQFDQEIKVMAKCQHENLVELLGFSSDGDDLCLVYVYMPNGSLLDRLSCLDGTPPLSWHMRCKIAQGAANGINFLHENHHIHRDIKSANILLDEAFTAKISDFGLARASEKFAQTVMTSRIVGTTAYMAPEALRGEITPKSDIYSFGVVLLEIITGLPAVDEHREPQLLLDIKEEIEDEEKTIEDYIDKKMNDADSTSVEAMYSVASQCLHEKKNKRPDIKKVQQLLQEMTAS

As for `COc1cc(NC(=O)c2cccc(C(F)(F)F)n2)cn2cc(C3CCOCC3)nc12` [Example 105, N-(8-methoxy-2-tetrahydropyran-4-yl-imidazo[1,2-a]pyridin-6-yl)-6-(trifluoromethyl)picolinamide], the figures for the IC50 against IRAK4 [1] and on IRAK4 [2] were 0.015 µM and 0.006 µM, respectively.
